Results: ChEMBL document CHEMBL1134568

By UniProt entry, the sequences of proteins in these tests, tags left out. Where a name states a change or a piece, a line headed by the entry shows the natural chain unless it says otherwise.
UniProt P41144: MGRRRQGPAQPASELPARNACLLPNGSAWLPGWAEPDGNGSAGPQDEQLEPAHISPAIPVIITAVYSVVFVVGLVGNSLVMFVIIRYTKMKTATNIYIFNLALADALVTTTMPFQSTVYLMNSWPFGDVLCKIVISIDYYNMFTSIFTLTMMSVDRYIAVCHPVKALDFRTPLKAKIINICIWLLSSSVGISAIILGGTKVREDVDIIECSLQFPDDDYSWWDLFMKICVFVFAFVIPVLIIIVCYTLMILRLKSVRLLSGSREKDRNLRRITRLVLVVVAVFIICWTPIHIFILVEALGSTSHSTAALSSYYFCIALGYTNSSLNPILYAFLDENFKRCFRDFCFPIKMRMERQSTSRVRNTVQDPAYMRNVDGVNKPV
UniProt O15399: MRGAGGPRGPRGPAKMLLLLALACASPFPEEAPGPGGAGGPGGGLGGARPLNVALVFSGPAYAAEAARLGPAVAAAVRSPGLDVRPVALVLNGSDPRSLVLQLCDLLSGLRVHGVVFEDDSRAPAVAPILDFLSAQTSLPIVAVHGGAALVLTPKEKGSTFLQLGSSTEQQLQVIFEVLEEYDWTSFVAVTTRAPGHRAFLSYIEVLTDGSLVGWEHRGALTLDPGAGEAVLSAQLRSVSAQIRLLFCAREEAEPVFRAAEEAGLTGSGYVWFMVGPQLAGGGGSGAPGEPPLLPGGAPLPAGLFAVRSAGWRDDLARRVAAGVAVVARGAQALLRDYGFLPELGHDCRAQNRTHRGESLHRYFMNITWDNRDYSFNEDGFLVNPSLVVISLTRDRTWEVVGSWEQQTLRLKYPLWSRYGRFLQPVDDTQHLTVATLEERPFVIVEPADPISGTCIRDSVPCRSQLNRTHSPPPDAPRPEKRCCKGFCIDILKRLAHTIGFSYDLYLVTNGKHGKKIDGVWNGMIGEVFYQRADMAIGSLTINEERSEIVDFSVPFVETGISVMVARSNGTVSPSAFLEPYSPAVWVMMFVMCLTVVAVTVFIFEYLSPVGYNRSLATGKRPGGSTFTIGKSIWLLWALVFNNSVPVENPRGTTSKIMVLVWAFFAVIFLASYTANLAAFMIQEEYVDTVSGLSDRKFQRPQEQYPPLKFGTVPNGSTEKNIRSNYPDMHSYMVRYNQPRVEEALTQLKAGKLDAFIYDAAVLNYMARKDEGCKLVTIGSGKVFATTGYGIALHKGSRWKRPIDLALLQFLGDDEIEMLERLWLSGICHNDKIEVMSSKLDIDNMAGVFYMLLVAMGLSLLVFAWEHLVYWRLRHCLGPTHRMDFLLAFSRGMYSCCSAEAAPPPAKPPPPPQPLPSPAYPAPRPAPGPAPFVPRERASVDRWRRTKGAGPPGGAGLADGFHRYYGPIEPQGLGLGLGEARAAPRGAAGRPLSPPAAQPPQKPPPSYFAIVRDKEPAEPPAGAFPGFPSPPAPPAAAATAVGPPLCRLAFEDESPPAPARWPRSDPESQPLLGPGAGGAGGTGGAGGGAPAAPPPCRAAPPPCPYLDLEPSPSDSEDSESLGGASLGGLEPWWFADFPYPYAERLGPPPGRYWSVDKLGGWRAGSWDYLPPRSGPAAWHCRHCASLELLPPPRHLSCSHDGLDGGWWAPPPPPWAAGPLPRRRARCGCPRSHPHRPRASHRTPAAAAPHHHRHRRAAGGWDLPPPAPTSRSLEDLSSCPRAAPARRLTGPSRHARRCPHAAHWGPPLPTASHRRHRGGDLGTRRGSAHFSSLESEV
UniProt O60391: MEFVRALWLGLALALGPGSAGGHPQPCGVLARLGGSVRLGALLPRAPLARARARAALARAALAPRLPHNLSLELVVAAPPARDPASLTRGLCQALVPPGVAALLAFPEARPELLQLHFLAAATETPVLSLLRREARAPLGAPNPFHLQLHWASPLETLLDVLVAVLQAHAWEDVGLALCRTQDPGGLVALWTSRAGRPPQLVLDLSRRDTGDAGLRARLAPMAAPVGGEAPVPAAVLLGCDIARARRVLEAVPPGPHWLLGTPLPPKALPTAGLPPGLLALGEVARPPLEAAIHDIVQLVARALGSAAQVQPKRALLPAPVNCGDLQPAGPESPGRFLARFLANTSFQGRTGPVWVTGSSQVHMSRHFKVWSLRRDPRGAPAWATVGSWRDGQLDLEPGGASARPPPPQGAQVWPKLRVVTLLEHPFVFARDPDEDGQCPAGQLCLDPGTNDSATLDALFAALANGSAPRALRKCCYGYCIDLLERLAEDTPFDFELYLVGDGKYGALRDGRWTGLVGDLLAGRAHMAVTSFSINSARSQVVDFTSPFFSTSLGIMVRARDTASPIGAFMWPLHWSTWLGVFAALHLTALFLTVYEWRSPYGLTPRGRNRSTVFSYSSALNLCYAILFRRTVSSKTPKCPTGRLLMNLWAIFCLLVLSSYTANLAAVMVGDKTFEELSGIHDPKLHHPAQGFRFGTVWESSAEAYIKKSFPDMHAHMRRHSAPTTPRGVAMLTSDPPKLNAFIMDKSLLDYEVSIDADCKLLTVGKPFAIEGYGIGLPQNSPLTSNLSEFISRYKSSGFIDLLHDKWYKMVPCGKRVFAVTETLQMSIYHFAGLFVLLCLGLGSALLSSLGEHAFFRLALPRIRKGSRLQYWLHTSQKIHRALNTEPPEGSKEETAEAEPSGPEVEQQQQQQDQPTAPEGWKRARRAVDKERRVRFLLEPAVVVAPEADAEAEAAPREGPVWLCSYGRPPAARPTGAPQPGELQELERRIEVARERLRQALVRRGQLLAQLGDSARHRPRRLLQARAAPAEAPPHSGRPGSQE
UniProt Q13224: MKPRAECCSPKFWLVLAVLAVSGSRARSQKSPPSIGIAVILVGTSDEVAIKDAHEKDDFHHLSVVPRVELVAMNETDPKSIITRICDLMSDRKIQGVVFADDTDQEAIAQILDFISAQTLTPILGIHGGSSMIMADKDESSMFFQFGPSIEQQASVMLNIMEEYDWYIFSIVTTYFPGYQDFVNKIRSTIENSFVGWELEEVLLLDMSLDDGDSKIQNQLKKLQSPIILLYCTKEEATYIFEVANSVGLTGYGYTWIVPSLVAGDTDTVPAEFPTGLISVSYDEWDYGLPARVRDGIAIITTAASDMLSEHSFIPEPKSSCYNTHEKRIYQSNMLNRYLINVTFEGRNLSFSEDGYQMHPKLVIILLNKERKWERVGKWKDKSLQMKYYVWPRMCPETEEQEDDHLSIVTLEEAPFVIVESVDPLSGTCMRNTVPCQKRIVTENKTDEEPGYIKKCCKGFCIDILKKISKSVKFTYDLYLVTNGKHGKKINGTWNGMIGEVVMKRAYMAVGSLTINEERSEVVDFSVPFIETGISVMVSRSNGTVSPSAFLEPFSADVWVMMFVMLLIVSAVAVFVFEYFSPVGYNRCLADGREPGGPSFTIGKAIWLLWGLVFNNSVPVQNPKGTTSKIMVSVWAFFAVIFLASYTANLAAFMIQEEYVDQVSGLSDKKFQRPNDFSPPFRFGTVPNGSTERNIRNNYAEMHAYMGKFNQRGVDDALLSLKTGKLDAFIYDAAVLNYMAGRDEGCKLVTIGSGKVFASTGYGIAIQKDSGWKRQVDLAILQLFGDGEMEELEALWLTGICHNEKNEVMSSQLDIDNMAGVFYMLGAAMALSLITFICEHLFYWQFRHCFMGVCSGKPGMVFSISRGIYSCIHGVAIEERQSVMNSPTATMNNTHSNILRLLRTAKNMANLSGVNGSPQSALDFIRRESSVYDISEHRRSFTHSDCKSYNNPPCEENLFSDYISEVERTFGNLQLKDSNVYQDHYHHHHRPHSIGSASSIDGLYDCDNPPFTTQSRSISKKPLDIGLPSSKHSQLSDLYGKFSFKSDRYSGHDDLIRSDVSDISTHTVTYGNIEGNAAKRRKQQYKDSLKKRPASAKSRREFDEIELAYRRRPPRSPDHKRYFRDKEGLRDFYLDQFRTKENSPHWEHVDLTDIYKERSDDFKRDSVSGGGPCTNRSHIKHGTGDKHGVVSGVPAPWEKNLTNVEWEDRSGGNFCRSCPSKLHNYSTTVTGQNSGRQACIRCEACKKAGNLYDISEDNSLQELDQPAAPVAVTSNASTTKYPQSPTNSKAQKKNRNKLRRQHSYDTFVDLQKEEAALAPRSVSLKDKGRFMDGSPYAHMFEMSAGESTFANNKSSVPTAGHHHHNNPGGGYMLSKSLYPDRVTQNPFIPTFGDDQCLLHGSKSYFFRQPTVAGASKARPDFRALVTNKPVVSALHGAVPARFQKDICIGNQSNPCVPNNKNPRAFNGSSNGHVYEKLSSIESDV
UniProt Q8TCU5: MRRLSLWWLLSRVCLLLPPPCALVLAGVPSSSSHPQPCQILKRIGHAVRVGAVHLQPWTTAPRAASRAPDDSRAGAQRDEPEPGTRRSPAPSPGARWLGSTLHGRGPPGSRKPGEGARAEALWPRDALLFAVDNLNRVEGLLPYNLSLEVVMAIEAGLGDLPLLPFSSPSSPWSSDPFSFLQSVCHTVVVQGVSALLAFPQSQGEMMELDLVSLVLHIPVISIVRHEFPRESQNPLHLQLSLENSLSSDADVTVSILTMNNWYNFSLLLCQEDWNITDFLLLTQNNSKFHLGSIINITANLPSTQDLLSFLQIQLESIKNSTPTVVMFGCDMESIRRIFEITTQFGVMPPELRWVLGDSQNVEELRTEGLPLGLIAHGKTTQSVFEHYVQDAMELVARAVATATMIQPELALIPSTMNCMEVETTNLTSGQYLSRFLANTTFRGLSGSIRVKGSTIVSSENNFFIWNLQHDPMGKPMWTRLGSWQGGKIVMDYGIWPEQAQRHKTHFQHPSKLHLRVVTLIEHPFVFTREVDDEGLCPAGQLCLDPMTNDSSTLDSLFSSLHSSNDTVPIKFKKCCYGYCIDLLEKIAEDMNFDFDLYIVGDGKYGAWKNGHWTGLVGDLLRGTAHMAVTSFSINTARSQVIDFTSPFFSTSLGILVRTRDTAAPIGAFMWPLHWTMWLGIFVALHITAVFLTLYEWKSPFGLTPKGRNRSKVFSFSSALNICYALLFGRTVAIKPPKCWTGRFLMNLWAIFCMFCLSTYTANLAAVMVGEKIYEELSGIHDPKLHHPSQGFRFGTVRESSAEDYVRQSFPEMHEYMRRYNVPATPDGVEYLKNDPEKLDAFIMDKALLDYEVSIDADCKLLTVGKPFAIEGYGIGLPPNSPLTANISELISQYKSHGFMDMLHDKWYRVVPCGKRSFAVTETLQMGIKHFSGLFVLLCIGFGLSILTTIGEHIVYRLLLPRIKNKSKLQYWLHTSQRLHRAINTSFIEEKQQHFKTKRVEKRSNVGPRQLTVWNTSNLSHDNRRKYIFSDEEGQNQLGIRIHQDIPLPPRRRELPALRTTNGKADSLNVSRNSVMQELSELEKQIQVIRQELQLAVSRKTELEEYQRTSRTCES
UniProt P97266, whole entry, looked up: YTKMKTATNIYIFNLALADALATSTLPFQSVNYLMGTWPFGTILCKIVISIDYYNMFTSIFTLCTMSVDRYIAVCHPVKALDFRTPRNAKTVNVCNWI

Experiments:
[1] = target: Kappa-type opioid receptor (Cavia porcellus, UniProt P41144); assay: Affinity to opioid receptor kappa 1 using [3H]U-69593 as radioligand in homogenates of guinea pig brain membranes
[2] = Affinity to sigma-1-receptor, using [3H]pentazocine as radioligand in homogenates of guinea pig brain membranes
[3] = target: T1, Glutamate [NMDA] receptor (UniProt O15399+O60391+Q05586+Q12879+Q13224+Q14957+Q8TCU5); assay: Affinity to N-methyl-D-aspartate glutamate receptor using [3H]MK-801 radioligand in pig brain cortex membranes
Mu-type opioid receptor = Mu-type opioid receptor (Cavia porcellus, UniProt P97266); assay: Affinity to mu-receptor, using [3H]DAMGO as radioligand in homogenates of guinea pig brain membranes
[4] = target: T1, Glutamate [NMDA] receptor; assay: Affinity to NMDA receptor, using [3H]MK-801 as radioligand in pig brain cortex membranes

SMILES | Ki [1] [µM] | Ki [2] [µM] | Ki [3] [µM] | Ki (Mu-type opioid receptor) [µM] | Ki [4] [µM]
C[C@H]([C@H]1CN(C(=O)OC(C)(C)C)CCN1C(=O)Cc1ccc(Cl)c(Cl)c1)N1CCCC1 | 0.206 | > 1 | > 10 | > 10 | 
C[C@@H]([C@@H]1CN(C(=O)OC(C)(C)C)CCN1C(=O)Cc1ccc(Cl)c(Cl)c1)N1CCCC1 | 0.013 | > 1 | > 10 | > 1 | 
CCC(=O)N1CCN(C(=O)Cc2ccc(Cl)c(Cl)c2)[C@@H]([C@@H](C)N2CCCC2)C1 | 0.0042 | > 1 | > 10 | > 1 | 
c1ccc(C2(N3CCCCC3)CCCCC2)cc1 |  |  |  |  | 0.0153
COC(=O)N1CCN(C(=O)Cc2ccc(Cl)c(Cl)c2)[C@H](CN2CCCC2)C1 | 0.00045 |  |  |  | 
C[C@H]([C@@H]1CN(C(=O)OC(C)(C)C)CCN1C(=O)Cc1ccc(Cl)c(Cl)c1)N1CCCC1 | 0.5 | > 1 | > 10 | > 1 | 
C[C@H](C1CN(c2ccccc2)CCN1C(=O)Cc1ccc(Cl)c(Cl)c1)N1CCCC1 (some centres not stated) [listing 1 of 2 here] | > 1 |  | > 10 | > 1 | 
CCCCN1CCN(C(=O)Cc2ccc(Cl)c(Cl)c2)C([C@@H](C)N2CCCC2)C1 (some centres not stated) | 0.134 | 0.081 | > 10 | > 1 | 
CCCCN1CCN(C(=O)Cc2ccc(Cl)c(Cl)c2)C([C@H](C)N2CCCC2)C1 (some centres not stated) [listing 1 of 2 here] | 0.237 |  | > 10 | > 1 | 
CN(C(=O)Cc1ccc(Cl)c(Cl)c1)C1CCCCC1N1CCCC1 (configuration not stated) | 0.00049 |  |  |  | 
C[C@@H]([C@H]1CN(C(=O)OC(C)(C)C)CCN1C(=O)Cc1ccc(Cl)c(Cl)c1)N1CCCC1 | > 10 | > 1 | > 10 | > 10 | 
COC(=O)N1CCN(C(=O)Cc2ccc(Cl)c(Cl)c2)[C@H]([C@H](C)N2CCCC2)C1 [listing 1 of 2 here] | 0.00031 |  | > 10 | 0.00036 | 
COC(=O)N1CCN(C(=O)Cc2ccc(Cl)c(Cl)c2)[C@@H]([C@@H](C)N2CCCC2)C1 [listing 1 of 2 here] | 0.0024 |  | > 10 | 0.0068 | 
COC(=O)N1CCN(C(=O)Cc2ccc(Cl)c(Cl)c2)[C@@H]([C@@H](C)N2CCCC2)C1 [listing 2 of 2 here] |  | > 1 |  |  | 
CCC(=O)N1CCN(C(=O)Cc2ccc(Cl)c(Cl)c2)[C@H]([C@H](C)N2CCCC2)C1 | 0.00067 | > 1 | > 10 | 19.1 | 
C[C@H](C1CN(c2ccccc2)CCN1C(=O)Cc1ccc(Cl)c(Cl)c1)N1CCCC1 (some centres not stated) [listing 2 of 2 here] |  | > 1 |  |  | 
COC(=O)N1CCN(C(=O)Cc2ccc(Cl)c(Cl)c2)[C@H]([C@@H](C)N2CCCC2)C1 | 0.0088 | > 1 | > 10 | > 1 | 
COC(=O)N1CCN(C(=O)Cc2ccc(Cl)c(Cl)c2)[C@@H]([C@H](C)N2CCCC2)C1 | 0.0349 | > 1 | > 10 | > 10 | 
CCC(=O)N1CCN(C(=O)Cc2ccc(Cl)c(Cl)c2)[C@@H]([C@H](C)N2CCCC2)C1 | > 10 | > 1 | > 10 | > 10 | 
CCCCN1CCN(C(=O)Cc2ccc(Cl)c(Cl)c2)C([C@H](C)N2CCCC2)C1 (some centres not stated) [listing 2 of 2 here] |  | 0.0402 |  |  | 
C[C@@H](C1CN(c2ccccc2)CCN1C(=O)Cc1ccc(Cl)c(Cl)c1)N1CCCC1 (some centres not stated) | > 10 | > 1 | > 10 | > 10 | 
COC(=O)N1CCN(C(=O)Cc2ccc(Cl)c(Cl)c2)[C@H]([C@H](C)N2CCCC2)C1 [listing 2 of 2 here] |  | > 1 |  |  | 
CCC(=O)N1CCN(C(=O)Cc2ccc(Cl)c(Cl)c2)[C@H]([C@@H](C)N2CCCC2)C1 | 0.0434 | > 1 | > 10 | > 1 | 
